Nrf2 block = inhibitors of Nrf2 signaling | A549 ARE-Fluc reporter, luciferase luminescence, 18-24 h | Potency, µM (series often up to 46 µM), without a hit: at the highest dose activity change, negative = inhibition, most hits filed as inhibitors | hit rate 2.1% among 360,000 | AID 504444; also: % is scaled to controls: 0 for no effect and ±100 for the full control effect; nearly all actives have a fitted effect of over 60% in size
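Two sequential reads on A549 ARE_Fluc cells exposed to compound for 18-24 h: a CellTiter-Fluor fluorescence read for viability, then a luciferase luminescence read for Nrf2/ARE activity.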
Rango dissoc inh = inhibition of RanGTP-driven Rango-importin beta dissociation; O95149+P62826; Potency, µM (doses to about 46.1 µM), without a hit: at the highest dose activity change, negative = inhibition; Biochemical FRET Rango-importin beta, RanGTP-induced dissociation; AID 540253; hit rate 0.071% among 340,000; calls by dose curve; also: % of control where 0% means no effect; nearly all actives have a fitted effect of over 45% in size
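Compounds sat 5 min at room temperature with 0.1 uM Rango biosensor plus 0.25 uM importin beta, then FRET pre-read. RanGTP-RCC1 (0.6 uM Ran, 2mM GTP, 0.2 uM RCC1) added for 45 min, and the CFP/YFP post-read measured blocked complex dissociation.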
A549 viability = counter-screen for Nrf2 inhibitors: cytotoxicity in A549 cells. hit rate 0.16% among 390,000. Potency, µM (titrated, usually from 46 µM), for the others: top-dose activity change, negative = cytotoxicity, actives largely listed as inhibitors. A549 ARE-Fluc cells, CellTiter-Fluor viability, 18-24 h. AID 504648; also: % is scaled to controls: 0 for no effect and ±100 for the full control effect
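Cytotoxicity counterscreen: CellTiter-Fluor fluorescence was measured in A549 ARE_Fluc cells after 18-24 h of compound exposure in a concentration series. The subsequent BugLite luminescent read reports ARE-luciferase activity.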
Rango-impB inh = Rango-importin beta binding inhibition | Rango CFP/YFP FRET sensor + importin beta, 45 min | Q14974 | Potency, µM (doses to about 92.2 µM), without a hit: at the highest dose inhibition of complex formation | hit rate 0.031% among 340,000; calls by dose curve;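 also: 0% = DMSO wells and 100% = buffer wells lacking importin beta; nearly all actives have a fitted effect of over 15% in size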
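FRET biosensor (snurportin 1 IBB flanked by EYFP and cerulean), 50 nM, with compound 5 min, then 0.125 microM importin beta in PBS, 1 mM DTT, 0.02% Tween-20, 0.1% BSA. CFP/YFP ratio read after 45 min at room temperature; pre-read flags interference.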
Nrf2 ARE act = Nrf2 pathway activation; AREc32 ARE-luciferase reporter (MCF7-derived line), luminescence, 24 h; Potency, µM (titrated, usually from 46.1 µM), for the others: at the top dose activation, actives largely listed as activators; hit rate 0.31% among 410,000; also: % of control where 0% means no effect; nearly all actives have a fitted effect of over 65% in size
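Luminescent ARE reporter assay in AREc32_Fluc cells: overnight plating at 37 deg C, 24 hr compound incubation, Steady-Glo added, 30 min RT before reading.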
An asterisk follows results filed as active; ? = inconclusive; / = no result; [ ] = remark or other dose. Shown are actives, neighbours in structure and some others; about 2.3% of the full set was active somewhere. Unless noted, calls follow the shape of the dose curve; as a rule, active = well fitted curve in the direction sought with a large enough effect; inconclusive = small, poorly fitted or top-dose-only effect, or another doubt; inactive = no such curve, though single readings can be large; an effect the other way counts as inactive or inconclusive. Potency is read from the fitted curve at half-maximal effect.

cpd | molecule | Nrf2 block | Rango dissoc inh | A549 viability
1 | Cc1c(NC(=S)Nc2ccc(Cl)cc2)c(=O)n(-c2ccccc2)n1C | -1% | 9% | 1%
2 | CCOC(=O)C(=CNc1ccc(Oc2cncc(Cl)c2)nc1)C(=O)OCC | -19% | -1% | -2%
3 | CC(=O)Nc1ccc(OCc2cccc(C3Nc4ccccc4C(=O)N3Cc3ccco3)c2)cc1 (centres undefined) | -14% | / | -9%
4 | Cc1ccc2nsnc2c1NC(=O)Cc1ccc(Cl)cc1 | 4% | 1% | 12%
5 | Cc1ccc2nsnc2c1NC(=O)c1ccc(-c2cc(Cl)ccc2Cl)o1 | 13µM* | 0% | 9.2µM*
6 | COc1cccc(Oc2nc3c(c(=O)n(Cc4ccccc4Cl)c(=O)n3C)n2C)c1 | -2% | / | -5%
7 | CC1CCN(Cc2c(C(=O)N/N=C/c3ccc(C(F)(F)F)cc3)nnn2-c2nonc2N)CC1 | 26µM* | 1% | ?
8 | CC1CCN(Cc2c(C(=O)N/N=C/c3cccc(C(F)(F)F)c3)nnn2-c2nonc2N)CC1 | 0% | 10% | 3%
9 | COc1ccc(-c2nc3sc(CCNC(=O)C(=O)Nc4ccc(C)c(F)c4)c(C)n3n2)cc1 | / | / | 1%
10 | CCOC(=O)c1c(NC(NC(=O)C(C)C)C(Cl)(Cl)Cl)sc2c1CCC2 (centres undefined) | 23µM* | -9% | ?
11 | CCOc1ccc(/C=C/C(=O)Nc2ccc3nc(N(CC)CC)cc(C)c3c2)cc1OC | -15%[9.27 µM] | / | ?
12 | Cc1cc(C)c(C(=O)/C=C/c2cccc3ccccc23)c(=O)[nH]1 | 18µM* | ? | ?
13 | O=C(Cc1nnc(-c2cc3ccccc3[nH]2)o1)Nc1cc(C(F)(F)F)ccc1Cl | -19% | / | 1%
14 | c1coc(CSc2ncnc3c2oc2ccccc23)c1 | ? | -3% | 2%
15 | c1ccc(CSc2ncnc3c2oc2ccccc23)cc1 | ? | -11% | -4%

cpd | Rango-impB inh | Nrf2 ARE act
1 | 1% | 0%
2 | -1% | -1%
3 | / | /
4 | 0% | 0%
5 | -3% | 5%
6 | / | -1%
7 | 5% | 0%
8 | 0% | 9%
9 | / | -2%
10 | -6% | 2%
11 | / | 12%
12 | ? | -3%
13 | / | /
14 | 1% | 4.5µM*
15 | 4% | 0%

Some of these compounds in order of the Rango-impB inh value, smallest number first.
nr	canonical_smiles	Rango-impB inh
10	CCOC(=O)c1c(NC(NC(=O)C(C)C)C(Cl)(Cl)Cl)sc2c1CCC2 (centres undefined)	-6%
4	Cc1ccc2nsnc2c1NC(=O)Cc1ccc(Cl)cc1	0%
15	c1ccc(CSc2ncnc3c2oc2ccccc23)cc1	4%

Back to the main list, starting 2 compounds before the break.
cpd | molecule | Nrf2 block | Rango dissoc inh | A549 viability
14 | c1coc(CSc2ncnc3c2oc2ccccc23)c1 | ? | -3% | 2%
15 | c1ccc(CSc2ncnc3c2oc2ccccc23)cc1 | ? | -11% | -4%
16 | O=C(Nc1ccccc1F)c1cc(Cl)sc1Cl | ? | 7% | 6%
17 | O=C(Nc1ccc(F)cc1F)c1csc(-c2cccs2)n1 | ? | 25% | -1%
18 | O=C(Nc1ccc(F)cc1F)c1cc(Cl)sc1Cl | ? | 7% | -8%
19 | CCN1CCN(C(=O)CCN(CC(C)C)c2nc(-c3cccs3)nc3ccccc23)CC1 | -18% | / | -13%
20 | Cc1ccc(NC(=O)CNC(=O)C2CCCCC2)nc1 | 1% | -2% | 0%
21 | Cc1cccc(NC(=O)CSc2nc3ccccc3c3nc(CCc4c(C)n[nH]c4C)nn23)c1 | 10µM* | 23% | ?
22 | Cc1cncn1CCc1nc2c3ccccc3nc(SCC(=O)Nc3cccc(Cl)c3)n2n1 | -18% | 0% | 16µM*
23 | Cc1n[nH]c(C)c1CCc1nc2c3ccccc3nc(SCC(=O)Nc3ccccc3F)n2n1 | ? | 0% | ?
24 | COc1cccc(OC)c1OCCCN1CCC(Cc2ccccc2)CC1 | -20% | 32% | ?
25 | CC(=O)Oc1c(Cl)c(N2CCOCC2)c(OC(C)=O)c2ccccc12 | ? | -6% | -3%
26 | Cc1cc(OC(=O)N2CCOCC2)cc(C)c1Cl | -4% | -2% | 1%
27 | Cc1ccc2oc3c(c(=O)c2c1)C(c1cccc(Br)c1)N(Cc1ccco1)C3=O (centres undefined) | ? | 7% | -1%
28 | Cc1cc2oc3c(c(=O)c2cc1C)C(c1cccc(Br)c1)N(Cc1ccco1)C3=O (centres undefined) | 8.2µM* | -9% | -18%
29 | CO[C@H]1CC[C@@]2(C)[C@@H](CC[C@@H]3[C@@H]2CC[C@@]2(C)[C@H]3C[C@H](C(=O)N[C@@H](CCCN=C(N)N)C(=O)NCC(=O)N[C@@H](CC(=O)O)C(N)=O)O[C@]23CCCO3)C1 | 0% | 2% | 2%
30 | COc1ccc(C(=O)Nc2ccccn2)cc1S(=O)(=O)N1CCOCC1 | 13% | -18% | 1%

cpd | Rango-impB inh | Nrf2 ARE act
14 | 1% | 4.5µM*
15 | 4% | 0%
16 | 0% | ?
17 | 3% | 10µM*
18 | -2% | 14µM*
19 | / | /
20 | -3% | 0%
21 | 1% | -1%
22 | 0% | 16%
23 | 1% | 0%
24 | 1% | 0%
25 | 1% | 16µM*
26 | -1% | 0%
27 | -3% | 0%
28 | -1% | 0%
29 | 3% | 0%
30 | -1% | 14%

Later entries:
cpd | molecule | Nrf2 block | Rango dissoc inh | A549 viability
31 | CC(=O)c1c(C)[nH]c(C(=O)Nc2nc(-c3ccc(-c4ccccc4)cc3)cs2)c1C | 23µM* | 5% | ?
32 | O=C(COc1cccc(Cl)c1)Nc1nc(-c2ccc(S(=O)(=O)N3CCOCC3)cc2)cs1 | ? | 1% | -3%
33 | COc1ccc(C(=O)Nc2nc(-c3ccccn3)cs2)cc1S(=O)(=O)N1CCOCC1 | 16µM* | -15% | -3%
34 | CCOc1cccc(C(=O)Nc2nc(-c3ccc(S(=O)(=O)N4CCOCC4)cc3)cs2)c1 | / | -5% | 0%
35 | Cc1ccc2nc(-c3ccccn3)cc(C(=O)Nc3ccc(S(=O)(=O)N4CCOCC4)cc3)c2c1 | ? | -4% | 6%
36 | Cc1ccc(S(=O)(=O)N2CCOCC2)cc1C(=O)Nc1nc(-c2ccccn2)cs1 | 9.2µM* | -11% | -12%
37 | CCC/C=C1\CCCOC(C(=O)NCc2ccccc2)(C(F)(F)F)C1 (centres undefined) | 1% | / | 3%
38 | COc1ccc(-c2csc(NC(=O)CS(=O)(=O)c3ccccc3)n2)cc1 | ? | 10% | -1%
39 | COc1ccc(-c2csc(NC(=O)C3CCCCN3S(=O)(=O)c3ccccc3)n2)cc1 (centres undefined) | 23µM* | -1% | -30%
40 | O=C(Nc1nc(-c2ccccn2)cs1)c1cccc(S(=O)(=O)N2CCOCC2)c1 | 3.3µM* | ? | ?
41 | COc1ccc(-c2csc(NC(=O)c3ccccc3S(C)(=O)=O)n2)cc1 | 16µM* | 12% | -11%
42 | COc1ccc(-c2csc(NC(=O)c3cccc(S(=O)(=O)N4CCN(C)CC4)c3)n2)cc1 | 15µM* | 2% | -13%
43 | CCc1ccc(C2=C(C)C(N3CCC(C(=O)NCc4ccc(C)o4)CC3)=NS2(=O)=O)cc1 | 0% | / | ?
44 | CC(=O)Nc1ccc(-c2csc(N/N=C(/C)c3ccccc3)n2)cc1 | 9% | -22% | -4%
45 | CC(=O)Nc1cccc(-c2csc(Nc3ccc(Cl)cn3)n2)c1 | -11% | ? | -11%
46 | CC(=O)Nc1ccc(-c2csc(Nc3ccc(Cl)cn3)n2)cc1 | 15µM* | 2% | -18%
47 | CC(=O)Nc1ccc(-c2csc(NNC(=O)c3ccccc3)n2)cc1 | 13µM* | 8% | ?

cpd | Rango-impB inh | Nrf2 ARE act
31 | 0% | 0%
32 | 0% | 0%
33 | 0% | 0%
34 | 65µM* | 1%
35 | 1% | 0%
36 | 1% | 1%
37 | / | /
38 | 1% | 3%
39 | 9% | 3%
40 | 0% | 1%
41 | 2% | 2%
42 | 1% | 2%
43 | / | -1%
44 | 0% | 3%
45 | 1% | 3%
46 | -1% | 9%
47 | 1% | 19%

Source: PubChem BioAssay (National Center for Advancing Translational Sciences (NCATS))
